According to ChEMBL document CHEMBL3588848, “Dihydropyrrolopyrazol-6-one MCHR1 antagonists for the treatment of obesity: Insights on in vivo efficacy from a novel FLIPR assay setup” (Bioorg Med Chem Lett, 2015):

Key:
[1] = Ratio of drug level in brain to plasma in Sprague-Dawley rat assessed as 2-(4-chlorophenyl)-5-(4-(2-hydroxy-2-methylpropoxy)-3-methoxyphenyl)-4,5-dihydropyrrolo[3,4-c]pyrazol-6(2H)-one at 30 mg/kg, po qd measured at 20 hrs post dose
[2] = Ratio of unbound concentration in Sprague-Dawley rat brain assessed as 2-(4-chlorophenyl)-5-(4-(2-hydroxy-2-methylpropoxy)-3-methoxyphenyl)-4,5-dihydropyrrolo[3,4-c]pyrazol-6(2H)-one at 30 mg/kg, po qd to Ki for rat MCHR1 assessed as 2-(4-chlorophenyl)-5-(4-(2-hydroxy-2-methylpropoxy)-3-methoxyphenyl)-4,5-dihydropyrrolo[3,4-c]pyrazol-6(2H)-one; format: ADME, organism-based; conditions: in vivo

BPR [1]: 0.42
Ratio [2]: 2.8
SMILES: COc1cc(N2Cc3cn(-c4ccc(Cl)cc4)nc3C2=O)ccc1OCC(C)(C)OC(=O)CN
